MC4R barr agon = MC4R agonists recruiting beta-arrestin, primary screen, cell-based, luminescence, agonist arm of biased-ligand search; U2OS MC4R beta-arrestin complementation; percent of melanotan II response, DMSO zero; activation, % at 8.9 µM; 360,000 compounds, 0.98% hits;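 active = activation above a per-plate cutoff, the mean activation of sample wells on that plate plus 3 SD, cut at about 8% in these data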
NALP1 yeast inh = NALP1 inflammasome inhibitors in reconstituted yeast, colorimetric, S. cerevisiae, triplicate retest; S. cerevisiae NALP1/ASC/caspase-1 growth, X-gal OD620, 72 h; inhibition, % at 10 µM; 280,000 compounds, 0.61% hits; in the data active = inhibition mostly above about 24%, no sharp cut-off; inactive = mostly below about 32%
HDAC3 inh = HDAC3 deacetylase inhibitors, primary screen, biochemical, fluorescence, cell-free homogeneous. inhibition, % at 8.3 µM. recombinant HDAC3, fluorogenic peptide/trypsin coupled. 320,000 compounds, 0.15% hits. AID 2718, 2010. Histone deacetylase 3 (Homo sapiens), O15379; in the data active = inhibition above about 26%, passing the limit was not always enough; inconclusive = no clear call, values can overlap the other calls
ALR H2O2 inh = inhibitors of human ALR sulfhydryl oxidase, primary screen, biochemical, H2O2 detection, HRP-luminol luminescence, single point. 290,000 compounds, 3.8% hits. inhibition, % (concentration not given with the values). purified ALR, DTT oxidation. AID 485317, 2010;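 active means mean and each replicate at 75% or more; inconclusive means only one of the two met; inactive means neither met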;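 further: stock transfer was 7.5 nL into about 7.5 µL; 0% = neutral wells and 100% = wells with inactivated enzyme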
MC4R antagonist = MC4R antagonists of cAMP signaling, primary screen, cell-based, TR-FRET, antagonist arm of biased-ligand search; Melanocortin receptor 4 (Homo sapiens), P32245; MC4R-expressing cells, MTII-stimulated cAMP, LANCE TR-FRET; inhibition, % at 6.5 µM; 360,000 compounds, 0.48% hits; AID 540295, 2011;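 active = inhibition above its plate's cutoff, the mean of tested wells on that plate plus 3 SD, cut at about 29% in these data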;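 note: 0% = Melanotan II alone and 100% = Melanotan II plus saturating MCL0020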
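Assay system: human MC4R-expressing U2OS cells; reagent: Melanotan II stimulation of cells; dosing: 6.5 µM single dose; timing: compound 30 min, challenge 1 h, detection 1 h; signal: TR-FRET cAMP assay; replicates: one well per compound, no replicates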
UUG fidelity = alters start codon recognition fidelity in yeast. S. cerevisiae UUG-firefly luciferase reporter, luminescence/redox ratio. activity score, % at 18.7 µM. 0.13% of 350,000 active. AID 602363;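 active = replicate mean at a twofold rise or more, about +100% in these data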;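 also: firefly luciferase made from a UUG start codon reports start codon fidelity; reporter light over untreated wells divided by growth signal over untreated wells; some hits fall short of that in this replicate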
* = called active by the depositor; ? = inconclusive; / = no result given. Rows were chosen to be rich in hits. Some 4.2% of all compounds tested hit in one or more screens of this group.

Protein sequences, listed by entry. Tags and fused reporters are not part of them.
Melanocortin receptor 4 (Homo sapiens), P32245, UniProt P32245, whole entry, looked up: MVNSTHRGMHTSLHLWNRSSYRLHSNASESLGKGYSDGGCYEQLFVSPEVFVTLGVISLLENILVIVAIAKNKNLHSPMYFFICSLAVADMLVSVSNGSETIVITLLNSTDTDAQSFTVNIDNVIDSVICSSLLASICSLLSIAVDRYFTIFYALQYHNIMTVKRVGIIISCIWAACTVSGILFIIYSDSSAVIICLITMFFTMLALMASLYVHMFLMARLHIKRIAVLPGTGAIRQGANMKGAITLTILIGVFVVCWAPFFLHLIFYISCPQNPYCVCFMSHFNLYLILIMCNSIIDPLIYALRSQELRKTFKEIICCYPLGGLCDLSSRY

Order of results – MC4R barr agon	NALP1 yeast inh	HDAC3 inh	ALR H2O2 inh	MC4R antagonist	UUG fidelity
1) Nc1nc(-c2ccc3c(c2)OCCO3)c(CC(=O)O)s1
 : -0.9	0.6	4.1	9.9	7.3	0.4
2) CC1COc2c(N3CCN(C)CC3)c(F)cc3c(=O)c(C(=O)O)cn1c23 (stereo not given)
 : -1.0	/	-43.0	7.1	2.1	-3.9
3) CCOc1ccc(NC(=O)c2ccc(NC(=O)c3cn4c5c(c(N6CCN(C)CC6)c(F)cc5c3=O)OCC4C)cc2)cc1 (stereo not given)
 : -2.4	85.5*	-8.9	-10.8	7.5	/
4) CCCc1cc(=O)n2[nH]cc(-c3ccc(Cl)cc3)c2n1
 : -3.2	-5.8	-2.0	99.0*	9.2	-16.8
5) CCOC(=O)Cc1c(C)nc2c(-c3ccc(Cl)cc3)c[nH]n2c1=O
 : -0.1	-7.9	-45.3	97.8*	3.9	-12.0
6) CCOc1ccc(C(c2c(O)nc(SC)n(C)c2=O)c2c(O)nc(SC)n(C)c2=O)cc1
 : -2.4	6.8	0.7	97.7*	8.5	-18.5
7) CCOC(=O)C1C(=O)NC(c2ccccc2)=NC1c1ccc(F)cc1 (stereo not given)
 : -1.1	-0.9	-3.0	98.1*	7.8	-9.0
8) Cc1ccc(-n2nc3c(N4CCC(C(=O)NCc5ccccc5C)CC4)nnc(C)c3c2C)cc1
 : 9.6*	25.1	0.8	/	9.6	-11.2
9) Cc1ccccc1CNC(=O)C1CCCN(c2nnc(C)c3c(C)n(-c4ccccc4)nc23)C1 (stereo not given)
 : 6.1	29.2	2.4	-3.5	9.0	-0.4
10) COc1ccc(N2CCN(c3nc4ccccn4c(=O)c3C=O)CC2)cc1
 : -0.1	/	4.9	?	-1.6	/

Exported bar-delimited: entries from further up.
nr | SMILES | MC4R barr agon | NALP1 yeast inh | HDAC3 inh | ALR H2O2 inh | MC4R antagonist | UUG fidelity
5 | CCOC(=O)Cc1c(C)nc2c(-c3ccc(Cl)cc3)c[nH]n2c1=O | -0.1 | -7.9 | -45.3 | 97.8* | 3.9 | -12.0
6 | CCOc1ccc(C(c2c(O)nc(SC)n(C)c2=O)c2c(O)nc(SC)n(C)c2=O)cc1 | -2.4 | 6.8 | 0.7 | 97.7* | 8.5 | -18.5

(continued)
Order of results – MC4R barr agon	NALP1 yeast inh	HDAC3 inh	ALR H2O2 inh	MC4R antagonist	UUG fidelity
11) O=Cc1c(N2CCN(c3ccccc3)CC2)nc2ccccn2c1=O
 : -2.4	-0.3	0.9	98.6*	-3.8	/
12) Cc1ccc2nc(N3CCN(c4ccccc4)CC3)c(C=O)c(=O)n2c1
 : 0.6	12.9	1.9	1.0	17.2	40.2
13) COc1ccc(N2CCN(c3nc4ccc(C)cn4c(=O)c3C=O)CC2)cc1
 : -0.8	-0.9	-3.2	80.9*	8.1	/
14) CC1=C(C)/C(=N\OS(=O)(=O)c2ccc(C)cc2)C=CC1=O
 : 1.1	81.7	1.5	/	16.5	/
15) CC1=C/C(=N\OS(=O)(=O)c2ccccc2)C(C(C)C)=CC1=O
 : 30.7*	102.3*	3.4	98.0*	45.4*	/
16) C[C@H]1CN([C@@H](C)CO)C(=O)c2cc(C#CC3CC3)cnc2O[C@H]1CN(C)S(=O)(=O)c1cccc(F)c1
 : /	/	/	/	/	12.1
17) C/C=C/CSc1nc2c(c(=O)[nH]c(=O)n2C)n1Cc1ccc(C)cc1
 : 8.9*	29.9	1.9	-2.7	-24.3	-10.1
18) Cc1ccc(Cn2c(Sc3ncccn3)nc3c2c(=O)[nH]c(=O)n3C)cc1
 : -1.4	15.0	-4.8	-4.5	-7.0	6.2
19) CCOC(=O)c1c(N)sn(-c2ccccc2C)c1=S
 : -2.3	7.8	2.1	97.0*	-1.6	-8.5
20) CCOC(=O)c1nn(-c2ccccc2C)c(=O)c2c(N)scc12
 : -3.7	17.1	4.7	-410.2	-1.4	/

Compounds 19 to 20 from above:
Order of results – MC4R barr agon	NALP1 yeast inh	HDAC3 inh	ALR H2O2 inh	MC4R antagonist	UUG fidelity
19) CCOC(=O)c1c(N)sn(-c2ccccc2C)c1=S
 : -2.3	7.8	2.1	97.0*	-1.6	-8.5
20) CCOC(=O)c1nn(-c2ccccc2C)c(=O)c2c(N)scc12
 : -3.7	17.1	4.7	-410.2	-1.4	/

Next part:
Order of results – MC4R barr agon	NALP1 yeast inh	HDAC3 inh	ALR H2O2 inh	MC4R antagonist	UUG fidelity
21) C[C@@H]1CCCCO[C@@H](CN(C)Cc2ccncc2)[C@H](C)CN([C@@H](C)CO)C(=O)c2cc(NC(=O)CCC(F)(F)F)ccc2O1
 : /	/	/	/	/	-8.5
22) CCOC(=O)C(C(=O)OCC)C(C(=O)OCC)N1CCOCC1 (stereo not given)
 : 1.5	101.4*	0.2	1.4	9.5	/
23) CCOC(=O)C(C)CC(C)C(=O)N1CCOCCOCCN(C(=O)C(C)CC(C)C(=O)OCC)CCOCC1 (stereo not given)
 : -2.4	-16.9	-5.4	2.5	-3.5	-20.4
24) CCCC#Cc1cnc2c(c1)C(=O)N([C@H](C)CO)C[C@H](C)[C@@H](CN(C)C(=O)Nc1ccccc1F)O2
 : /	/	/	/	/	20.2
25) Cc1nn(C)cc1C(=O)/C=C/c1ccc([N+](=O)[O-])cc1
 : 5.2	2.7	-2.1	84.3*	2.0	/
26) CCn1cc(CN(C)C(=O)/C=C/c2ccc([N+](=O)[O-])cc2)c(C)n1
 : -0.2	34.6	2.4	-2.2	1.8	-10.1

From PubChem BioAssay
